Experimental data published in patent publication US9486546B2, “Methods and compositions for radiohalogen protein labeling” (Genentech, Inc., priority 2012, dated 2016).

Test system: KPL-4 tumor
Assay: Whole-body autoradiography in KPL-4 tumor-bearing mice
Format: in vivo
Conditions: midline plane autoradiograph; despite NaI blocking doses 24 and 1 h prior to dosing
Source text: In the three-dimensional volume renderings from a coronal perspective (upper), the skeletal images are derived from the X-ray (anatomical) CT data while the relative levels of radioactivity from the SPECT data are indicated in a false-color scale. Tumor-to-blood (T:B) ratios of radioactive uptake are shown. Post-mortem cryosection images from a sagittal perspective (lower) were acquired from the same mice as in the upper panel. False-colored phosphorimages (left) and digital photographs (right) are shown for each mouse in the tumoral plane. Tissues are labeled as tumor (T), liver (L) and kidney (K).
Whole-body localization of radioactivity in KPL-4 tumor-bearing mice was determined by autoradiography (FIG. 15, lower). Digital photographs of the sagittal cryosections allow anatomical coregistration. The same rank order of relative tumor uptake (upper panel) was qualitatively observed: ^111In-DOTA>[^125I]I6 (LC-V205C)>[^125I]6 (HC-A114C)>[^125I]6 (Fc-S396C)>^125I (tyrosine-modified). Elevated renal uptake, especially for the Fc variant of ^125I-6-trastuzumab, was evident by both SPECT and autoradiography and recapitulated the data obtained by organ harvest in the plasma pharmacokinetic study of FIG. 13 and biodistribution of FIG. 14. […]

**Q.** With “^125I-trastuzumab: trastuzumab radiolabeled by traditional means, through its tyrosine residues, with 125I by the indirect Chizzonite (Iodogen) method” as the substance, how does the “Thyroid gland uptake of radioactivity” value read?
**A.** strikingly high uptake of radioactivity in the thyroid gland
